Test [1] relates to Mus musculus. Nature of the test: Anti-autoimmune disease activity in Balb/c mouse assessed as reduction in anti-DNP induced IgM producing B cells administered twice orally at 12 hrs interval immunized post 1 hr first treatment measured after 8 days by ELISA. Type of test: functional, organism-based. The conditions noted are these: time 8.0 day. For orientation: An ELISA detects its analyte on a solid surface through an enzyme-linked reagent.

Test [2] has as its system Mus musculus. Put plainly: Anti-autoimmune disease activity in Balb/c mouse assessed as reduction in anti-DNP induced IgG producing B cells administered twice orally at 12 hrs interval immunized post 1 hr first treatment measured after 8 days by ELISA. Type of test: functional, organism-based. The conditions noted are these: time 8.0 day.

Structures are written as SMILES.

For `C[C@H]1COC[C@H](C)N1c1c(NC(=O)Nc2ccnc(C(F)(F)F)c2)cnc2cc(Cl)nn12`, the Activity result in the test on Mus musculus [1] and in the test with Mus musculus [2] was “Dose-dependent effect” in each case.

Source of the values: ChEMBL document CHEMBL4673331 (J Med Chem, 2020).
